Yeast mating assay 1: variants of the scFv Ab-14

Values reported by Engelhart et al. 2022, doi:10.1038/s41597-022-01779-4 (FLAb copy).

The target is the same throughout: PDVDLGDISGINAS, from the HR2 region of SARS-CoV-2 spike.

Parent: Ab-14, a human scFv built as VH, three GGGGS repeats, VL. Only the CDRs of the light chain vary.
VH: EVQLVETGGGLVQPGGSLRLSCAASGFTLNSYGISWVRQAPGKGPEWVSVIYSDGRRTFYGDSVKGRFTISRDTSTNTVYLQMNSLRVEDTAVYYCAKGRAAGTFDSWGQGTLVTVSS
VL: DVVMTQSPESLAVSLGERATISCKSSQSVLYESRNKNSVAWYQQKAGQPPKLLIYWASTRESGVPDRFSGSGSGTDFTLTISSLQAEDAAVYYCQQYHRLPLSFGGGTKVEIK

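The starting antibody came from a phage panning campaign against this peptide. The library (AAYL50) carries one to three amino acid substitutions per variant, with no insertions or deletions. The assay is AlphaSeq: two haploid yeast populations carry antibody and antigen on their surface. After mating in shaken culture at 30 °C for 16 h, diploids were selected and their barcode pairs sequenced. Each replicate has its own calibration line, from reference interactions of the BCL2 family. There are three technical replicates.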

The whole VL of each variant is written out.
Numbers give log10(Kd / nM), so 0 is 1 nM and 3 is 1 µM. Smaller is tighter.
Replicates are averaged; those with no signal do not enter the mean.
Where no diploid with the target was found in that replicate, the entry reads "nd": below detection, most likely a poor binder, though not proof of it.
Background: pairings of library AAYL50 with three empty control strains gave a value in 18% of cases (median 4.19, 5th percentile 2.99). Values in that range, when seen in few replicates, are hard to tell from nonspecific mating. Also given: how often the same scFv was detected with the empty control strains.
Parent in this assay: reference entry 0.65, copy in this library 1.68.

For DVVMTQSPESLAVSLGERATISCKSSQSVMYESRNKNSVAWYQQKAGQPPKLLIYWAHTRESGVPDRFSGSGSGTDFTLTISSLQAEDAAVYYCQQYHALPLSFGGGTKVEIK, the assay gave 1.36, 1.50, 1.56 (mean 1.47; controls 1 of 9).
For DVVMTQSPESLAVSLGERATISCKSWQSVLMESRNKNSVAWYQQKAGQPPKLLIYWVSTRESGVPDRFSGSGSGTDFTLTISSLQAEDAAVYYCQQYHRLPLSFGGGTKVEIK, the assay gave nd, nd, 4.12 (controls 2 of 9).
For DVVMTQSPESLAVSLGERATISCKSSQVVLYESRNKNSVAWYQQKAGQPPKLLIYWASRRESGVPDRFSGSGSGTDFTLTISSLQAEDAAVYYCQQYHWLPLSFGGGTKVEIK, the assay gave nd, nd, nd (controls 1 of 9).
For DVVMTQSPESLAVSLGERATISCKSSQSVLYESRNKIISAWYQQKAGQPPKLLIYWASTRESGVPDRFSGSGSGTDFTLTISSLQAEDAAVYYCQQYHRLPLSFGGGTKVEIK, the assay gave nd, nd, nd (controls 1 of 9).
For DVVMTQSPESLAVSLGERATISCKSSASVLYESRNQNSCAWYQQKAGQPPKLLIYWASTRESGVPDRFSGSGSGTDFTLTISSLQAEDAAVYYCQQYHRLPLSFGGGTKVEIK, the assay gave 4.38, 5.32, nd (mean 4.85; controls 2 of 9).
For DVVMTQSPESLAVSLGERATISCKSRQSVLYESRNKNSVAWYQQKAGQPPKLLIYWASTYESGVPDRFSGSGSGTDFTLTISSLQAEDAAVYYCQQHHRLPLSFGGGTKVEIK, the assay gave nd, nd, 3.74 (controls 1 of 9).
For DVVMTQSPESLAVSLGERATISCKSSQSELYESRNKNSVAWYQQKAGQPPKLLIYWASTRESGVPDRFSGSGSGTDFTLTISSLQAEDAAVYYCQQYHRPKLSFGGGTKVEIK, the assay gave nd, nd, nd (controls 1 of 9).
For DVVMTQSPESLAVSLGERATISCKSSQSVLYESQNKNSVAWYQQKAGQPPKLLIYWASTRESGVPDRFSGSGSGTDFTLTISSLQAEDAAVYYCQQYQRLYLSFGGGTKVEIK, the assay gave nd, 4.14, nd (controls 2 of 9).
For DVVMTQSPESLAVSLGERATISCKSSQSVLYESRNKNSVAWYQQKAGQPPKLLIYWASRRESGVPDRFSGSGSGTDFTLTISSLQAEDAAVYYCQQYHRMSLSFGGGTKVEIK, the assay gave nd, 3.72, nd (controls 2 of 9).
For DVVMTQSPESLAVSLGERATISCKSSQSVLYESRNTNSVAWYQQKAGQPPKLLIYWASTRENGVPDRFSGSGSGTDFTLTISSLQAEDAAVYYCQQYYRLPLSFGGGTKVEIK, the assay gave 1.64, 1.94, 1.79 (mean 1.79; controls 5 of 9).
For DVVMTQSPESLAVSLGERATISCKSSQSVPYESRNKNSVAWYQQKAGQPPKLLIYWASTREPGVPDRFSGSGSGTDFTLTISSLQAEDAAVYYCQQYHRLPLAFGGGTKVEIK, the assay gave 0.48, 0.67, 0.57 (mean 0.57; controls 2 of 9).
For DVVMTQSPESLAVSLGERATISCKSSCSVLYESRNKNSVAWYQQKAGQPPKLLIYWISTRESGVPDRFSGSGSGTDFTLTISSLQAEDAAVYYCQQYHRLHLSFGGGTKVEIK, the assay gave nd, nd, nd (controls 0 of 9).
For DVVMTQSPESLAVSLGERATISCKSSQSVLYESRNKNSVAWYQQKAGQPPKLLIYWASTRESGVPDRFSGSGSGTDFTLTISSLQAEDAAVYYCQHYHRLPLFFGGGTKVEIK, the assay gave 0.88, 1.14, 1.01 (mean 1.01; controls 0 of 9).
For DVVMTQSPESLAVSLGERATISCKSSQSVLKESRNKNSVAWYQQKAGQPPKLLIYWASTMEQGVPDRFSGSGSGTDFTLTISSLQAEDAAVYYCQQYHRLPLSFGGGTKVEIK, the assay gave 2.59, 2.83, 3.21 (mean 2.88; controls 3 of 9).
For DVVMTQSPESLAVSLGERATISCKSSQSVLYESRNKNSVAWYQQKAGQPPKLLIYWASTEESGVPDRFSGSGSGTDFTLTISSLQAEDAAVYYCMQYHRIPLSFGGGTKVEIK, the assay gave nd, nd, nd (controls 0 of 9).
For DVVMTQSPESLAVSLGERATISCPSSQSVLYESRNQNSVAWYQQKAGQPPKLLIYWASTRESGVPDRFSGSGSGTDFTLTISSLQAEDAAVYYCQQYHRLPLSFGGGTKVEIK, the assay gave nd, 3.77, nd (controls 4 of 9).
For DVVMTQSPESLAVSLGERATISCKSSQSPLYESRNKNSVAWYQQKAGQPPKLLIYWHSTRESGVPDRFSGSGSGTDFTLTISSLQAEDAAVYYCQQYHRLNLSFGGGTKVEIK, the assay gave nd, 4.65, 3.55 (mean 4.10; controls 1 of 9).
For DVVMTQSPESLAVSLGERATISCKSSQSVLYESRNKNSVAWYQQKAGQPPKLLIYWASTRRSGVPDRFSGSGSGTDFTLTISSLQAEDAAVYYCQQYFRLPDSFGGGTKVEIK, the assay gave nd, nd, nd (controls 7 of 9).
For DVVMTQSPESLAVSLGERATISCKSSQSWLKESRNKNSVAWYQQKAGQPPKLLIYWASTRESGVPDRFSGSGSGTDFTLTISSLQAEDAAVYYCQQYHREPLSFGGGTKVEIK, the assay gave 0.51, 0.48, 0.68 (mean 0.56; controls 0 of 9).
For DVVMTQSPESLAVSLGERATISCKESTSVLYESRNKNSVAWYQQKAGQPPKLLIYWASTRESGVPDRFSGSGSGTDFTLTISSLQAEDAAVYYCQQYHRLPLSFGGGTKVEIK, the assay gave nd, nd, nd (controls 7 of 9).
For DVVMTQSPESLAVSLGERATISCKSSQSVLYESRNKNSRAWYQQKAGQPPKLLIYWTSTRESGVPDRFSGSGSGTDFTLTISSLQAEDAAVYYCQQYHRLPLSFGGGTKVEIK, the assay gave nd, nd, nd (controls 0 of 9).
For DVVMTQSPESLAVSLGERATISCKSSQSELYESVNKNSVAWYQQKAGQPPKLLIYWASTRESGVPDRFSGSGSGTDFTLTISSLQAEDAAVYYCQQYHRLHLSFGGGTKVEIK, the assay gave 0.92, 1.19, 1.33 (mean 1.15; controls 3 of 9).
For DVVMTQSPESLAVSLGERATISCKSSQMELYESRNKNSVAWYQQKAGQPPKLLIYWASYRESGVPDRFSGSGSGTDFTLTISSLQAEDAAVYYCQQYHRLPLSFGGGTKVEIK, the assay gave 1.80, 1.75, 1.53 (mean 1.69; controls 1 of 9).
For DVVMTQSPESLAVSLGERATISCKSSQSVLYESRNKNSVEWYQQKAGQPPKLLIYWASTYESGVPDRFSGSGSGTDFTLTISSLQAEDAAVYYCQQYHRLPLSFGGGTKVEIK, the assay gave nd, 3.90, 4.99 (mean 4.45; controls 4 of 9).
For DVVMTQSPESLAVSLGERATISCKTSQSVLYESRNKNSVAWYQQKAGQPPKLLIYWMSTRESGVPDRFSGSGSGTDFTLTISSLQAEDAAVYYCQQYHRLPLSFGGGTKVEIK, the assay gave 2.07, 1.81, 1.90 (mean 1.93; controls 0 of 9).

Again, the first 2 entries without any signal:

VL	replicates, log10 nM	mean log10 Kd (nM)	empty controls
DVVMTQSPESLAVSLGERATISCKSSQVVLYESRNKNSVAWYQQKAGQPPKLLIYWASRRESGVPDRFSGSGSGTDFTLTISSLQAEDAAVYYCQQYHWLPLSFGGGTKVEIK	nd, nd, nd	nd	1/9
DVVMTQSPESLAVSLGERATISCKSSQSVLYESRNKIISAWYQQKAGQPPKLLIYWASTRESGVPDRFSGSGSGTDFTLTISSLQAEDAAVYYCQQYHRLPLSFGGGTKVEIK	nd, nd, nd	nd	1/9